Molecular target: Drp1 (Homo sapiens (Human), UniProt O00429)
Test: Drp1 Activity Screen: colorimetric (malachite green) GTPase assay
Type: biochemical
Conditions: max % inhibition of Drp1 GTPase activity; 0.6 μM Drp1, 0.1 mg/mL liposomes, 1 mM GTP, 20 min at 37° C.

Amino acid sequences for entries named in this document (tags omitted).
UniProt O00429, whole entry: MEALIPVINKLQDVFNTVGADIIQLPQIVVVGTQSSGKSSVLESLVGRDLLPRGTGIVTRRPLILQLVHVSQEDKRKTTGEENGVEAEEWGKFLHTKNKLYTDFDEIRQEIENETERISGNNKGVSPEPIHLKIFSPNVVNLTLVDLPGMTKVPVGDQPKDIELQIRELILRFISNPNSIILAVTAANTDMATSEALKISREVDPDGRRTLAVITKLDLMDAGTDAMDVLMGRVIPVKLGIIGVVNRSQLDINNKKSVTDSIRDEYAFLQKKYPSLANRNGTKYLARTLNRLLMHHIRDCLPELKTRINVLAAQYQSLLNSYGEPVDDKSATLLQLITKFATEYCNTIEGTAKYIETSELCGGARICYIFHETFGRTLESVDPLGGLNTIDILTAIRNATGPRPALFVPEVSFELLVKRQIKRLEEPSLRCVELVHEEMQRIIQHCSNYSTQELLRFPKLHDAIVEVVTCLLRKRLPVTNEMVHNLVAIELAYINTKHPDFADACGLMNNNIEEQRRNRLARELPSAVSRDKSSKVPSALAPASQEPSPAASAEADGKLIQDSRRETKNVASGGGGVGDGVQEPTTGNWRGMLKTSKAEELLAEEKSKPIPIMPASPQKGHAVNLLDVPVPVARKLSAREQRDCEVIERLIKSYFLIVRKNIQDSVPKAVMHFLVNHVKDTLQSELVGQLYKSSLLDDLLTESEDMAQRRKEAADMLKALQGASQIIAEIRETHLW

Cc1cc(C(=O)Nc2ccc(C(=O)O)cc2)n(Cc2csc(N(C)C)n2)c1
max % inh: 59%
